# The entries are a selection whose mix differs from that of the whole data set. Some salts and complexes are drawn in separate pieces, as the source files them; their charges need not balance. Activity calls are given as the source filed them. Calls follow the shape of the dose curve; as a rule, active = well fitted activation curve with a large enough effect; inconclusive = small, poorly fitted or top-dose-only effect; inactive = no such curve, though single readings can be large or run the other way.
# Experiment: qHTS Assay for Small Molecule Inhibitors of Mitochondrial Division or Activators of Mitochondrial Fusion; also: % of control where 0% means no effect; nearly all actives have a fitted effect of over 45% in size
# Details: S. cerevisiae fusion-defective mutant growth rescue, CellTiterGlo 48 h; at 46.1 µM (top of the series)
# Source text: NIH Chemical Genomics Center [NCGC] NIH Molecular Libraries Probe Production centers Network [MLPCN] MLPCN Grant: MH081279-01 Assay Submitter (PI): Jodi M. Nunnari NCGC Assay Overview: The budding yeast S. cerevisiae is a powerful system to study mitochondrial fusion. Unlike other organisms, yeast cells without functional mitochondrial DNA (mtDNA) can be propagated and studied as long as they maintain a mitochondrial compartment and are provided with a fermentable carbon source. When mitochondrial fusion is blocked in yeast, mitochondrial tubules rapidly fragment and division continues unopposed. Under conditions where fusion is compromised in mammalian cells, nearly identical changes in mitochondrial structure have been observed. Thus, these findings indicate that steady state mitochondrial structure in cells is a characteristic and specific indicator of fusion activity. Mounting evidence has pointed to a connection between mitochondrial dynamics and apoptosis in mammalian cells. These studies indicate that in mammalian cells mitochondrial dynamics are more integrated into cellular processes than in yeast cells and have evolved not only to distribute the organelle but also to aid in the regulation of cellular homeostasis. Mitochondrial fusion proteins attenuate apoptosis by inhibiting the release of cytochrome c from mitochondria, in part by controlling cristae structures. Thus, small molecules that inhibit mitochondrial […] may promote apoptosis and potentially act as novel chemotherapeutics and stimulation of apoptosis has become an attractive target of anti-cancer therapies. To identify inhibitors of mitochondrial division, we exploit the growth phenotypes of mitochondrial fusion-defective mutants. The temperature sensitive fusion alleles, such as fzo1-1 and mgm1-5, cause mitochondrial membranes to fragment in cells under non-permissive conditions and cells lose mtDNA, and are unable to grow in the presence of non-fermentable carbon source glycerol. Inhibiting mitochondrial division rescues growth. We have developed and optimized a luminescence cell viability assay in 1536 well format for the identification of inhibitors in the yeast mitochondrial fusion-defective assay.
# The yeast glycerol stocks where kindly supplied by the laboratory of Dr. Jodi Nunnari, University of California, Davis. All yeast glycerol stock solutions were stored in single use aliquots at -80C. The CellTiterGlo luminescence reagent, containing luciferase and luciferin, were purchased from Promega, and the reagents were stored according to manufacturer's instructions. The Buffer components for the YPEG yeast growth medium were purchased from Sigma-Aldrich (St. Louis, MO). YPEG growth medium: 1% (w/v) yeast extract, 2% (w/v) Bacto-peptone, 3% Ethanol, 3% glycerol, 0.4mM Tryptophan, 0.36mM Adenine. qHTS Assay Protocol: 1.#Dispense 2.5 ul yeast growth medium per 1536 well plate. 2.#Transfer 23 nl per well of compound to plate. 3.#Dispense 2.5 ul yeast solution at appropriate seeding density per well. 4.#Incubate for 48 hours at 37C. 5.#Dispense 5 ul of CellTiterGlow solution per well. 6.#Incubate at ambient for 10 minutes. 7.#Read using bio-luminescence protocol on Viewlux.
row,Compound,growth rescue (activation)
1,CN1CCC(Nc2ccc(F)c(Cl)c2)CC1,inactive: -6.32%
2,CCOc1ncccc1C(=O)NCC1(N2CCOCC2)CCCCC1,inactive: 1.04%
3,O=C(O)C1(Nc2ccccc2)CCN(Cc2ccccc2)CC1,inactive: 7.9%
4,CC(C)(C)OC(=O)N1CCC(Nc2ccccc2)CC1,inactive: -1.62%
5,CCC(CO)(C(=O)OC1CN2CCC1CC2)c1ccccc1 (stereo unspecified),inactive: 0.735%
6,COc1cccc(C(=O)N(c2cc(C)cc(C)c2)C2CCN(C(=O)OC(C)(C)C)CC2)c1,inactive: 2.66%
7,COc1cc(OC)cc(C(=O)NCC2(N3CCOCC3)CCCCC2)c1,inactive: -0.478%
8,CCCOc1ccc(C)cc1CN(CCCl)CCCl,inactive: 3.55%
9,CN1CCC(Nc2ccc(Cl)cc2)CC1,inactive: -0.601%
10,COc1cc(OC)cc(C(=O)NCC2(N3CCCCC3)CCCCC2)c1,inactive: 19.9%
11,Fc1ccccc1NC1CCN(Cc2ccccc2)CC1,inactive: 1.5%
12,Cc1ccc(C(=O)NCC2(N3CCCCC3)CCCCC2)o1,inactive: -2.67%
13,CCN1CCC(Nc2cccc(F)c2)CC1,inactive: -2.99%
14,CN(C)c1ccc(C(=O)NCC2(N3CCCCC3)CCCCC2)cc1,inactive: -12.9%
15,O=C(NCC1(N2CCCCC2)CCCCC1)c1ccco1,inactive: -2.61%
16,CC(C)(C)OC(=O)N1CCC(N(C(=O)c2ccccc2)c2ccc(Cl)cc2)CC1,inactive: -15.3%
17,N#Cc1ccc(C(=O)NCC2(N3CCCCC3)CCCCC2)cc1,inactive: 1.4%
18,CCOC(=O)C(CC)C1=NC(C)(C)Cc2ccccc21.O=[N+]([O-])c1cc([N+](=O)[O-])c(O)c([N+](=O)[O-])c1 (stereo unspecified),inactive: 3.68%
19,CCCN1CCC(Nc2cc(OC)cc(OC)c2)CC1,inactive: -1.63%
20,c1ccc(CN2CCC(Nc3ccccc3)CC2)cc1,inactive: 0.674%
21,CN(C)C1(CNC(=O)c2cccc(C#N)c2)CCCCC1,inactive: 2.53%
22,O=C(NCC1(N2CCOCC2)CCCCC1)c1cc(Br)ccc1Cl,inactive: 4.96%
23,COc1ccc(C(=O)NCC2(N3CCOCC3)CCCCC2)cc1OC,inactive: -32.4%
24,N/C(=N\O)c1c(N)no[n+]1[O-],inactive: -1.95%

row,Compound,growth rescue (activation)
1,CCOC(=O)N1CCC(Nc2ccc(C)cc2)CC1,inactive: -0.774%
2,O=C(O)c1cccc(Nc2c([N+](=O)[O-])cc([N+](=O)[O-])cc2[N+](=O)[O-])c1,inactive: 3.71%
3,CCc1cc(C(=O)NCC2(N3CCCCC3)CCCCC2)sc1C,inactive: -5.96%
4,O=C(OC1CN2CCC1CC2)C1c2ccccc2C=Cc2ccccc21 (stereo unspecified),inactive: -6.84%
5,CN(C)c1cccc(C(=O)NCC2(N3CCCCC3)CCCCC2)c1,inactive: 2.48%
6,O=[N+]([O-])c1cc([N+](=O)[O-])c(OC2CCCCC2O)c([N+](=O)[O-])c1 (stereo unspecified),inactive: -0.543%
7,COc1ccc(CN(CCCl)CCCl)cc1Cl,inactive: 12.3%
8,CC(C)c1ccc(NC2CCN(C(=O)OC(C)(C)C)CC2)cc1,inactive: 2.99%
9,COc1cc(OC)c(C(=O)NCC2(N(C)C)CCCCC2)cc1OC,inactive: -6.07%
10,O=C(NCC1(N2CCCCC2)CCCCC1)c1cncc(Br)c1,inactive: -5.94%
11,COc1ccc2c(c1O)-c1c(O)c(OC)cc3c1[C@H](C2)[N+](C)(C)CC3.O=[N+]([O-])c1cc([N+](=O)[O-])c([O-])c([N+](=O)[O-])c1[O-],inactive: -1.1%
12,O=C(OC1CN2CCC1CC2)c1ccc([N+](=O)[O-])cc1 (stereo unspecified),inactive: -2.84%
13,CCCOc1ccc(C(=O)NCC2(N(C)C)CCCCC2)cc1OC,inactive: -10.4%
14,O=C(NCC1(N2CCCCC2)CCCCC1)c1ccc(OC(F)F)cc1,inactive: -3.56%
15,O=C(NCC1(N2CCCCC2)CCCCC1)c1cccc([N+](=O)[O-])c1,inactive: 8.89%
16,CSc1ccc(C(=O)NCC2(N3CCOCC3)CCCCC2)cc1,inactive: -6.7%
17,N#CC1(Nc2ccccc2)CCN(CCc2ccccc2)CC1,inactive: -0.847%
18,CCN1CCC(Nc2ccc(Cl)cc2)CC1,inactive: -1.46%
19,O=C(NCC1(N2CCCCC2)CCCCC1)c1cccc(C(F)(F)F)c1,inactive: -10%
20,O=[N+]([O-])c1cc([N+](=O)[O-])c(NCC2CCS(=O)(=O)C2)c([N+](=O)[O-])c1 (stereo unspecified),inactive: -8.35%
21,COc1ccc(NC2CCN(C(=O)OC(C)(C)C)CC2)cc1,inactive: 10.3%
22,CC(C)c1ccc(C(=O)NCC2(N3CCOCC3)CCCCC2)cc1,inactive: 4.24%
23,CN1CCN(CCOC(=O)C(O)(c2ccccc2)c2ccccc2)CC1,inactive: -5.13%
24,O=C(NCC1(N2CCOCC2)CCCCC1)c1cc(=O)[nH]c2ccccc12,inactive: 1.37%

row,Compound,growth rescue (activation)
1,COc1cc(C(=O)NCC2(N3CCCCC3)CCCCC2)ccc1OC(F)F,inactive: -2.12%
2,CCOc1ccc(C)cc1CN(CCCl)CCCl,inactive: 3.62%
3,CCOC(=O)N1CCC(Nc2ccc(F)cc2)CC1,inactive: 1.92%
4,COc1ccc(NC2CCN(CCc3ccccc3)CC2)c(OC)c1,inactive: -1.68%
5,CCCCOc1ccc(C(=O)NCC2(N3CCOCC3)CCCCC2)cc1,inactive: 8.49%
6,O=C(NCC1(N2CCCCC2)CCCCC1)c1ccc(F)cc1,inactive: -0.265%
7,Cc1ccc(OCC(C)C)c(CN(CCCl)CCCl)c1,inactive: -1.58%
8,CCOC(=O)N1CCC(Nc2cccc(C)c2)CC1,inactive: 0.475%
9,COc1cc(C(=O)NCC2(N(C)C)CCCCC2)ccc1OC(F)F,inactive: -6.28%
10,O=C(NCC1(N2CCCCC2)CCCCC1)c1cccs1,inactive: -1.23%
11,O=C(NCC1(N2CCCCC2)CCCCC1)c1ccc(=O)[nH]c1,inactive: -1.93%
12,COc1ccc(C(=O)NCC2(N3CCCCC3)CCCCC2)c(OC)c1OC,inactive: -1.68%
13,CC(C)(C)OC(=O)N1CCC(N(C(=O)c2ccccc2)c2ccc(F)cc2)CC1,inactive: -1.89%
14,COc1ccc(C(=O)NCC2(N3CCCCC3)CCCCC2)cc1,inactive: -8.38%
15,CSc1ccccc1C(=O)NCC1(N2CCCCC2)CCCCC1,inactive: -1.66%
16,O=C(NCC1(N2CCOCC2)CCCCC1)c1cc2ccccc2o1,inactive: 0.198%
17,Cc1cc(C)cc(N(C(=O)c2ccccc2)C2CCN(C(=O)OC(C)(C)C)CC2)c1,inactive: -10.8%
18,O=C(NCC1(N2CCCCC2)CCCCC1)c1ccc(Cl)nc1,inactive: -0.481%
19,CCOC(=O)N1CCC(Nc2ccc(OC)cc2)CC1,inactive: -3.86%
20,COc1ccc(Cl)cc1C(=O)NCC1(N2CCOCC2)CCCCC1,inactive: 11.5%
21,O=C(NCC1(N2CCCCC2)CCCCC1)c1ccc(Cl)s1,inactive: 0.344%
22,N#CC1(Nc2ccccc2)CCN(Cc2ccccc2)CC1,inactive: -1.21%
23,O=C(OC1CN2CCC1CC2)C1c2ccccc2Oc2ccccc21 (stereo unspecified),inactive: -8.56%
